# Data reported in patent US20090043129A1 (priority 2005, published 2009).
# Protein sequences, listed by entry. Tags and fused reporters are not part of them.
# UniProt P21554, whole entry: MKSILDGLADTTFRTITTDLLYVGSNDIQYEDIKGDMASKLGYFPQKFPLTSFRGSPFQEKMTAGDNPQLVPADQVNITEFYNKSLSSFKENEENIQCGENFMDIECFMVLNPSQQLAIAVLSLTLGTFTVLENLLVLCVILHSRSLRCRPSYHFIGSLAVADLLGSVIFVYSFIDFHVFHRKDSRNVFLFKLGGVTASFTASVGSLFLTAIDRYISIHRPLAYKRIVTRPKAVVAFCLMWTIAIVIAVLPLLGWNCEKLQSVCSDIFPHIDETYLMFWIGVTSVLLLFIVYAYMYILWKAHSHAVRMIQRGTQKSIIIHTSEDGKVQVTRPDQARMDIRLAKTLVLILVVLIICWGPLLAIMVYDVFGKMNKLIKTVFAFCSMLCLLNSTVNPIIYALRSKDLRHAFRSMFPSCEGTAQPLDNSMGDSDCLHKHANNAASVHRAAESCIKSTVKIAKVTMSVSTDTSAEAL
# UniProt P47746, whole entry: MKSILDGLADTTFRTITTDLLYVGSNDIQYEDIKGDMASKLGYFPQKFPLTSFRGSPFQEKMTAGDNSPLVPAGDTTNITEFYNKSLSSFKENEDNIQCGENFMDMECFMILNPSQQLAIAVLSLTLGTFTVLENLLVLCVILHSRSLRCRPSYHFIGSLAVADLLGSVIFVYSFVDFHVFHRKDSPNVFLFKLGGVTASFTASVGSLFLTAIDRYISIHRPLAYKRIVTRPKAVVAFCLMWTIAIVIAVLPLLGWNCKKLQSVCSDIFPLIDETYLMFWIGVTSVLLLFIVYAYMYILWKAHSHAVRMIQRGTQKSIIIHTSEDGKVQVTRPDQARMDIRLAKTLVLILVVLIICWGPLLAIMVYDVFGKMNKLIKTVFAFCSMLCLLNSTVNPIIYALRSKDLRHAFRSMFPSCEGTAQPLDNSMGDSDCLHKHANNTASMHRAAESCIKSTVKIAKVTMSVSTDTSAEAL
# Assays:
# [1] = target: human recombinant CB1 receptor (Homo sapiens, UniProt P21554); format: binding; design: purchased Perkin-Elmer; host or cells: COS cells
# [2] = target: T1, CB1 cannabinoid receptors (Mus musculus, UniProt P47746); experiment: Forskolin-induced cyclic AMP in N18TG2 neuroblastoma cells; format: cell-based; conditions: cAMP
# T1 construct: N18TG2 mouse neuroblastoma cells, which constitutively and selectively express the CB 1 cannabinoid receptors; endogenous in cells; host or cells: N18TG2 mouse neuroblastoma cells
# Experimental: After incubation, 800 μl of methanol were added, cells were extracted and cyclic AMP was determined with a cyclic AMP assay kit (Amersham, UK), in accordance with the supplier's recommendations.
Compound,Ki [1],functional behaviour at CB1 receptors [2]
"CCCCCCc1ccc(O)cc1OCCCCCCCCCCC(=O)NCCO [Compound 51, 11-(2-Hexyl-5-hydroxy-phenoxy)-undecanoic acid (2-hydroxy-ethyl)-amide]",1130 nM,
"Cc1c(C(=O)c2cccc3ccccc23)c2cccc3c2n1[C@H](CN1CCOCC1)CO3 [WIN, 55-212, reference compound]",,agonist
